Like-named read-outs stand apart in the source and are kept apart here.
Experiments:
Pim3 kinase [1] = molecular target: T1, Pim3 kinase (Homo sapiens (Human), UniProt Q86V86); experiment: biochemical
Pim1 kinase = Pim1 kinase (Homo sapiens (Human), UniProt P11309); experiment: biochemical
Pim3 kinase [2] = molecular target: T1, Pim3 kinase; conditions: read-out: Pim3 IC50

Sequences of proteins named here, by UniProt entry; tags and fusion partners are left off.
UniProt P11309, whole entry: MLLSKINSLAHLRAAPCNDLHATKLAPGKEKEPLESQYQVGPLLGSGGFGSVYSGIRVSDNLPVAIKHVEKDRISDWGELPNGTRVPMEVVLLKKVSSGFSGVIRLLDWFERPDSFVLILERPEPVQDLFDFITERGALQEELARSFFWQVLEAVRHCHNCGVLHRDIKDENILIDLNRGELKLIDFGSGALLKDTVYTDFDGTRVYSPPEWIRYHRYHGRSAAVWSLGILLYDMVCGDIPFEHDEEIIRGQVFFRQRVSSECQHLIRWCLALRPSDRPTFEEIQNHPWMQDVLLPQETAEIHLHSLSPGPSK

## Cc1ccc(F)c(-c2cccc(C(=O)Nc3cnccc3[C@@H]3C[C@H](C)C[C@H](N)C3)n2)c1F [Example 29, N-(4-((1R,3S,5S)-3-amino-5-methylcyclohexyl)pyridin-3-yl)-6-(2,6-difluoro-3-methylphenyl)picolinamide]
Pim3 kinase [1]
  IC50: 3 nM
Pim1 kinase
  IC50: 1 nM

## Nc1cc(F)c(-c2c(F)cccc2F)nc1C(=O)Nc1cnccc1[C@@H]1CC[C@H](O)[C@H](N)C1 [Example 65, 3-amino-N-(4-((1R,3R,4S)-3-amino-4-hydroxycyclohexyl)pyridin-3-yl)-6-(2,6-difluorophenyl)-5-fluoropicolinamide]
Pim3 kinase [2]
  IC50: 3 nM

## C[C@@H]1C[C@H](N)C[C@H](c2ccncc2NC(=O)c2ccc(F)c([C@H]3CC[C@H](O)CC3)n2)C1 [Example 55, N-(4-((1R,3S,5S)-3-amino-5-methylcyclohexyl)pyridin-3-yl)-5-fluoro-6-((1r,4r)-4-hydroxycyclohexyl)picolinamide]
Pim3 kinase [2]
  IC50: 30 nM

## Nc1ccc(C2CCCCC2)nc1C(=O)Nc1cnccc1[C@@H]1CCC[C@H](N)C1 [Example 106, 3-amino-N-(4-((1R,3S)-3-aminocyclohexyl)pyridin-3-yl)-6-cyclohexylpicolinamide]
Pim3 kinase [2]
  IC50: 14 nM

Source: US8592455B2 (priority 2008, dated 2013)
